Values quoted from earlier work, collected in patent US20080287669A1, “METHODS AND COMPOSITIONS FOR IDENTIFYING COMPOUNDS USEFUL IN NUCLEIC ACID PURIFICATION” (priority 2007, published 2008).
Read-outs that look alike come from different tables or passages of the source.

| SMILES | Dielectric Constant (DC) (Table 1, soluble organic solvents) | Dielectric Constant (DC) (Table 3, miscible organic solvents) |
| --- | --- | --- |
| CCCCOP(=O)(OCCCC)OCCCC | 8.34 | – |
| C1CN1 | – | 18.3 |
